Target: C-X-C chemokine receptor type 4 (Homo sapiens, UniProt P61073)
Experiment: Potency index, ratio of N-[6-[[2-[2-[[(3R,4R,4aS,7R,7aR,12bS)-3-(cyclopropylmethyl)-4a,9-dihydroxy-1,2,4,5,6,7,7a,13-octahydro-4,12-methanobenzofuro[3,2-e]isoquinoline-7-yl]amino]-2-oxo-ethoxy]acetyl]amino]hexyl]-2-[2-[[4-[(E)-[(cyclohexylamino)-[(6,6-dimethyl-5H-imidazo[2,1-b]thiazol-3-yl)methylsulfanyl]methylene]amino]cyclohexyl]methylamino]-2-oxo-ethoxy]acetamide IC50 to test compound IC50 for Displacement of [125I]SDF-1alpha from CXCR4 in human Chem-1 cells measured after 90 mins
Format: cell-based

Chains of the proteins cited; added tags and fusions are not shown.
UniProt P61073, whole entry: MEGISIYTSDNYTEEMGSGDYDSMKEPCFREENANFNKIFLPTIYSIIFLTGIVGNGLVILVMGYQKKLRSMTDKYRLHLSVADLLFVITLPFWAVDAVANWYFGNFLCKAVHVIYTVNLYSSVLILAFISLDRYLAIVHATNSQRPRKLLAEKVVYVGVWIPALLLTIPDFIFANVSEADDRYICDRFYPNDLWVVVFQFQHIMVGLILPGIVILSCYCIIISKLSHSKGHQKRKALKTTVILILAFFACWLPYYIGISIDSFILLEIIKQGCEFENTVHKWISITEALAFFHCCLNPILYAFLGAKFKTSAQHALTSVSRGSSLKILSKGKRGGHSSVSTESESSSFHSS

Question: For `CC1(C)CN2C(CS/C(N)=N\[C@H]3CC[C@H](CNC(=O)COCC(=O)NCCCCNC(=O)COCC(=O)N[C@@H]4CC[C@@]5(O)[C@H]6Cc7ccc(O)c8c7[C@@]5(CCN6CC5CC5)[C@H]4O8)CC3)=CSC2=N1`, which Ratio IC50 is on record?
Answer: The Ratio IC50 was 5.
